Results published in US9133148B2, “Carbamate compounds and of making and using same” (Abide Therapeutics, Inc., priority 2012, dated 2015).

Chains of the proteins cited; added tags and fusions are not shown.
UniProt O35678, whole entry: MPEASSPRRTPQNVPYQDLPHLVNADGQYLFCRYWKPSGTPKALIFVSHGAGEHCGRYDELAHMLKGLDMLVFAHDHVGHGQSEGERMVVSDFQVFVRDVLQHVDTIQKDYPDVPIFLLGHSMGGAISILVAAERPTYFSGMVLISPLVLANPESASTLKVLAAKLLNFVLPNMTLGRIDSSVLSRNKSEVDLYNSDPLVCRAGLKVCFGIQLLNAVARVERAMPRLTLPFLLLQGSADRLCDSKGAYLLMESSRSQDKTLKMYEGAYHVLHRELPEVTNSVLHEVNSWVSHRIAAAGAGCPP

Biological target: Mouse brain MAGL (Mus musculus (Mouse), UniProt O35678)
Assay: Mouse brain proteomes from inhibitor treated mice (oral gavage, ABPP of brain MAGL)
Assay type: in vivo
Conditions: 4 h following administration
Protocol: Preparation of Mouse Brain Proteomes from Inhibitor Treated Mice.
Inhibitors were administered to wild-type C57Bl/6J by oral gavage in a vehicle of polyethylene glycol.

O=C(OC(C(F)(F)F)C(F)(F)F)N1CCN(Cc2ccc(Br)cc2Oc2ccccc2)CC1 [Example 9b, 1,1,1,3,3,3-hexafluoropropan-2-yl 4-(4-bromo-2-phenoxybenzyl)piperazine-1-carboxylate]
Mouse brain MAGL (% inhibition at 20 mg/kg, p.o.): >95%
